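Grown in 96-well plates, cells were treated for 48 hours with each compound at five concentrations. Insufficient inhibition: endpoint recorded as highest concentration tested. At the GI50, growth is halved. TGI: total growth inhibition.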
Key:
Assay in all cases: DTP human tumour cell line panel, 48 h; in the data active = GI50 below about 0.43 µM; inactive = the rest
HOP-62 NSCLC = test system: HOP-62 NSCLC
786-0 renal = test system: 786-0 renal
M14 melanoma = test system: M14 melanoma
K-562 leukemia = test system: K-562 leukemia
RXF 393 renal = test system: RXF 393 renal
IGROV1 ovarian = test system: IGROV1 ovarian
LOX IMVI melanoma = test system: LOX IMVI melanoma
BT-549 breast = test system: BT-549 breast
MALME-3M melanoma = test system: MALME-3M melanoma
SN12C renal = test system: SN12C renal
SK-MEL-28 melanoma = test system: SK-MEL-28 melanoma
COLO 205 colon = test system: COLO 205 colon
SF-268 CNS = test system: SF-268 CNS
OVCAR-3 ovarian = test system: OVCAR-3 ovarian
SW-620 colon = test system: SW-620 colon
PC-3 prostate = test system: PC-3 prostate
SNB-75 CNS = test system: SNB-75 CNS
HCC-2998 colon = test system: HCC-2998 colon
UACC-62 melanoma = test system: UACC-62 melanoma
OVCAR-5 ovarian = test system: OVCAR-5 ovarian
HL-60(TB) leukemia = test system: HL-60(TB) leukemia
SK-MEL-5 melanoma = test system: SK-MEL-5 melanoma
MDA-MB-435 = test system: MDA-MB-435
NCI-H322M lung = test system: NCI-H322M lung
UACC-257 melanoma = test system: UACC-257 melanoma
HT29 colon = test system: HT29 colon
SF-295 CNS = test system: SF-295 CNS
U251 CNS = test system: U251 CNS
MDA-N = test system: MDA-N

CCP1(=O)N(C)[C@@H]2CCCC[C@H]2N1C
> 100 µM: TGI (HOP-62 NSCLC) | TGI (786-0 renal) | TGI (M14 melanoma) | TGI (K-562 leukemia) | TGI (RXF 393 renal) | TGI (LOX IMVI melanoma) | TGI (BT-549 breast) | TGI (MALME-3M melanoma) | TGI (SN12C renal) | TGI (SK-MEL-28 melanoma) | TGI (COLO 205 colon) | TGI (SF-268 CNS) | TGI (OVCAR-3 ovarian) | TGI (SW-620 colon) | TGI (PC-3 prostate) | TGI (SNB-75 CNS) | TGI (HCC-2998 colon) | TGI (UACC-62 melanoma) | TGI (OVCAR-5 ovarian) | TGI (HL-60(TB) leukemia) | TGI (SK-MEL-5 melanoma) | TGI (MDA-MB-435) | TGI (NCI-H322M lung) | TGI (UACC-257 melanoma) | TGI (HT29 colon) | TGI (SF-295 CNS) | TGI (U251 CNS) | TGI (MDA-N)
5.2 µM: TGI (IGROV1 ovarian)
active: GI50 (IGROV1 ovarian) 0.0436 µM
inactive: GI50 (786-0 renal) > 100 µM | GI50 (M14 melanoma) > 100 µM | GI50 (K-562 leukemia) > 100 µM | GI50 (RXF 393 renal) > 100 µM | GI50 (LOX IMVI melanoma) > 100 µM | GI50 (BT-549 breast) > 100 µM | GI50 (MALME-3M melanoma) > 100 µM | GI50 (SN12C renal) > 100 µM | GI50 (SK-MEL-28 melanoma) > 100 µM | GI50 (COLO 205 colon) > 100 µM | GI50 (SF-268 CNS) > 100 µM | GI50 (OVCAR-3 ovarian) > 100 µM | GI50 (SW-620 colon) > 100 µM | GI50 (PC-3 prostate) > 100 µM | GI50 (SNB-75 CNS) > 100 µM | GI50 (HCC-2998 colon) > 100 µM | GI50 (UACC-62 melanoma) > 100 µM | GI50 (OVCAR-5 ovarian) > 100 µM | GI50 (HL-60(TB) leukemia) > 100 µM | GI50 (SK-MEL-5 melanoma) > 100 µM | GI50 (MDA-MB-435) > 100 µM | GI50 (NCI-H322M lung) > 100 µM | GI50 (UACC-257 melanoma) > 100 µM | GI50 (HT29 colon) > 100 µM | GI50 (SF-295 CNS) > 100 µM | GI50 (U251 CNS) > 100 µM | GI50 (MDA-N) > 100 µM

From PubChem BioAssay (NCI)
